The values below come from paper PMC11171933, “Rapid Determination of Kinetic Constants for Slow-Binding Inhibitors and Inactivators of Human Histone Deacetylase 8” (International Journal of Molecular Sciences, 2024).

Sequences of proteins named here, by UniProt entry; tags and fusion partners are left off.
UniProt P10632, whole entry: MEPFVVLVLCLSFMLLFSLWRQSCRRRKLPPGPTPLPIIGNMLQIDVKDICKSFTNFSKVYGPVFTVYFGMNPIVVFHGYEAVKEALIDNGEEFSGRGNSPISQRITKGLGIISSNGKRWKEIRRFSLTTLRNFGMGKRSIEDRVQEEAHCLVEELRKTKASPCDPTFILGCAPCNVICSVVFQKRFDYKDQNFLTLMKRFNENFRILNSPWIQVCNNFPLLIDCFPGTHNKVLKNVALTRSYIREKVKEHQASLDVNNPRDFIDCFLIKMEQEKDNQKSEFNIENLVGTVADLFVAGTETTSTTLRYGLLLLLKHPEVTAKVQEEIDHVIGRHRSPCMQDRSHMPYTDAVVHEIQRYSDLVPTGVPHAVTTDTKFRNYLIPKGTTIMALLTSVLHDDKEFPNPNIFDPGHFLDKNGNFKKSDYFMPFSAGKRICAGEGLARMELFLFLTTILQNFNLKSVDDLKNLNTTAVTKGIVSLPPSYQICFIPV

The target in this data set is CYP2C8 (Homo sapiens, UniProt P10632). The data set is described as follows: Inactivation kinetics of CYP2C8 (literature data and reanalysis). Conditions: reanalysis of literature data, kobs vs [I].

As for `CNCCC(Oc1ccc(C(F)(F)F)cc1)c1ccccc1` (stereo not shown) [Fluoxetine], the Inactivation mechanism result was “indistinguishable from a one-step inactivation mechanism”.
